Legend:
hROMK (hKir1.1) = hROMK (hKir1.1) (Homo sapiens (Human), UniProt P48048); test: Thallium Flux Assay (ROMK channel functional thallium flux, FLIPR-Tetra); type: cell-based; conditions: HEK293 cells stably expressing hROMK (hKir1.1)
Kir1.1 (ROMK1) = Kir1.1 (ROMK1) (Homo sapiens (Human), UniProt P48048); test: Electrophysiology Assay (whole cell voltage clamp, IonWorks Quattro); type: cell-based; conditions: Chinese hamster ovary cells stably expressing Kir1.1; block during voltage step to 0 mV

Sequences of proteins named here, by UniProt entry; tags and fusion partners are left off. A change or cut given only in a name is not applied to a line headed by its entry.
UniProt P48048: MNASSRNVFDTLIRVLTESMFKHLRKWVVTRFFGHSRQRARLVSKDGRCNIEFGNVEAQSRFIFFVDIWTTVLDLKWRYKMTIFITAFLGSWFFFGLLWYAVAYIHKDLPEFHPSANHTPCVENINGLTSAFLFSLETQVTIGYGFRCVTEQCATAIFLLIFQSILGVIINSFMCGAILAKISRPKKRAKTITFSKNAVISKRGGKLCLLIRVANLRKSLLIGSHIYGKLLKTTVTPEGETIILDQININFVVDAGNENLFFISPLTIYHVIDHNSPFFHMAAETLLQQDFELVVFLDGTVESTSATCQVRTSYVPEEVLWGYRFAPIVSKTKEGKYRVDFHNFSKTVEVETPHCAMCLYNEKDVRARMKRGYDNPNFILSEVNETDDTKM

SMILES | IC50 (hROMK (hKir1.1)) [nM] | IC50 (Kir1.1 (ROMK1)) [nM]
O=C1OCc2cc([C@@H]3CN4CCN(C(=O)C5CCc6cc(-n7cnnn7)ncc65)C[C@H]4CO3)ccc21 (some centres unmarked) [Example 54] | 440 | 110
O=C1OCc2cc([C@H]3CN4CCN(C(=O)C5CCc6cc(-n7cnnn7)ncc65)C[C@H]4CO3)ccc21 (some centres unmarked) [Example 55] |  | 60
C[C@H]1Cc2c(ccc([C@@H]3CN4CCN(C(=O)C5CCc6nc(-n7cnnn7)ccc65)C[C@@H]4CO3)c2F)C(=O)O1 (some centres unmarked) [Example 84] | 570 | 100
O=C1OCc2cc([C@@H]3CN4CCN(C(=O)C5CCc6cc(-n7cnnn7)ncc65)C[C@H]4CO3)ccc21 (some centres unmarked) [Example 53] | 810 | 110
Cc1c([C@H]2CN3CCN(C(=O)C4CCc5cc(-n6cnnn6)ncc54)C[C@H]3CN2)ccc2c1COC2=O (some centres unmarked) [Example 101] | 550 | 230
O=C1OCc2cc([C@H]3CN4CCN(C(=O)C5CCc6cc(-n7cnnn7)ncc65)C[C@H]4CO3)ccc21 (some centres unmarked) [Example 56] | 220 | 110
C[C@@H]1Cc2c(ccc([C@@H]3CN4CCN(C(=O)C5CCc6nc(-n7cnnn7)ccc65)C[C@H]4CO3)c2F)C(=O)O1 (some centres unmarked) [Example 90] | 280 | 
C[C@H]1Cc2c(ccc([C@H]3CN4CCN(C(=O)C5CCc6nc(-n7cnnn7)ccc65)C[C@H]4CO3)c2F)C(=O)O1 (some centres unmarked) [Example 87] | 590 | 
O=C1OCCc2cc([C@H]3CN4CCN(C(=O)C5CCc6nc(-n7cnnn7)ccc65)C[C@@H]4CO3)ccc21 (some centres unmarked) [Example 16] | 390 | 390
CCc1c([C@H]2CN3CCN(C(=O)C4CCc5nc(-n6cnnn6)ccc54)C[C@H]3CO2)ccc2c1COC2=O (some centres unmarked) [Example 69] | 790 | 630
Cc1c(C2CN3CCN(C(=O)C4CCc5nc(-n6cnnn6)ccc54)CC3CCO2)ccc2c1COC2=O (centres unmarked) [Example 62] | 450 | 130
O=C1OCc2cc([C@@H]3CN4CCN(C(=O)C5CCc6nc(-n7cnnn7)ccc65)C[C@H]4CO3)ccc21 (some centres unmarked) [Example 57] |  | 90
C[C@H]1Cc2c(ccc([C@@H]3CN4CCN(C(=O)C5CCc6nc(-n7cnnn7)ccc65)C[C@@H]4CO3)c2F)C(=O)O1 (some centres unmarked) [Example 85] | 600 | 
O=C1OCCc2c1ccc([C@@H]1CN3CCN(C(=O)C4CCc5nc(-n6cnnn6)ccc54)C[C@H]3CO1)c2F (some centres unmarked) [Example 78] | 500 | 160
C[C@H]1Cc2cc(C3CN4CCN(C(=O)C5CCc6nc(-n7cnnn7)ccc65)CC4(C)CO3)ccc2C(=O)O1 (some centres unmarked) [Example 60] | 600 | 330
C[C@@H]1Cc2cc([C@@H]3CN4CCN(C(=O)C5CCc6cc(-n7cnnn7)ncc65)C[C@H]4CO3)ccc2C(=O)O1 (some centres unmarked) [Example 47] | 630 | 
C[C@H]1Cc2cc(C3CN4CCN(C(=O)C5CCc6nc(-n7cnnn7)ccc65)CC4(C)CO3)ccc2C(=O)O1 (some centres unmarked) [Example 59] |  | 230
C[C@@H]1Cc2cc([C@@H]3CN4CCN(C(=O)C5CCc6cc(-n7cnnn7)ncc65)C[C@H]4CO3)ccc2C(=O)O1 (some centres unmarked) [Example 48] | 630 | 
C[C@@H]1Cc2cc([C@H]3CN4CCN(C(=O)C5CCc6cc(-n7cnnn7)ncc65)C[C@H]4CO3)ccc2C(=O)O1 (some centres unmarked) [Example 46] | 540 | 540
Cc1c(C2CN3CCN(C(=O)C4CCc5nc(-n6cnnn6)ccc54)CC3CCO2)ccc2c1COC2=O (centres unmarked) [Example 61] | 140 | 190
C[C@H]1Cc2c(ccc([C@@H]3CN4CCN(C(=O)C5CCc6nc(-n7cnnn7)ccc65)C[C@H]4CO3)c2F)C(=O)O1 (some centres unmarked) [Example 88] | 330 | 100
O=C1OCc2cc([C@H]3CN4CCN(C(=O)C5CCc6nc(-n7cnnn7)ccc65)C[C@H]4CO3)ccc21 (some centres unmarked) [Example 58] | 420 | 150
C[C@@H]1Cc2c(ccc([C@@H]3CN4CCN(C(=O)C5CCc6nc(-n7cnnn7)ccc65)C[C@@H]4CO3)c2F)C(=O)O1 (some centres unmarked) [Example 89] | 600 | 

More lines, now with the values ahead:

IC50 (hROMK (hKir1.1)) [nM] | IC50 (Kir1.1 (ROMK1)) [nM] | SMILES
350 |  | C[C@H]1Cc2cc([C@@H]3CN4CCN(C(=O)C5CCc6nc(-n7cnnn7)ccc65)C[C@H]4CO3)ccc2C(=O)O1 (single isomer, unassigned) [Example 1G]
760 |  | C[C@@H]1Cc2cc([C@H]3CN4CCN(C(=O)C5CCc6nc(-n7cnnn7)ccc65)C[C@H]4CO3)ccc2C(=O)O1 (single isomer, unassigned) [Example 1F]
> 1000 | > 1000 | C[C@H]1Cc2cc([C@@H]3CN4CCN(C(=O)C5CCc6nc(-n7cnnn7)ccc65)C[C@H]4CO3)ccc2C(=O)O1 (single isomer, unassigned) [Example 1H]
> 1000 | > 1000 | C[C@H]1Cc2cc([C@H]3CN4CCN(C(=O)C5CCc6nc(-n7cnnn7)ccc65)C[C@H]4CO3)ccc2C(=O)O1 (single isomer, unassigned) [Example 1L]
340 | 190 | C[C@@H]1Cc2cc([C@@H]3CN4CCN(C(=O)C5CCc6nc(-n7cnnn7)ccc65)C[C@H]4CO3)ccc2C(=O)O1 (single isomer, unassigned) [Example 1A]
310 |  | C[C@@H]1Cc2cc([C@H]3CN4CCN(C(=O)C5CCc6nc(-n7cnnn7)ccc65)C[C@H]4CO3)ccc2C(=O)O1 (single isomer, unassigned) [Example 1C]
380 | 120 | C[C@H]1Cc2cc([C@@H]3CN4CCN(C(=O)C5CCc6nc(-n7cnnn7)ccc65)CC4CO3)ccc2C(=O)O1 (single isomer, unassigned) [Example 1I]
190 | 100 | O=C1OCCc2cc([C@@H]3CN4CCN(C(=O)C5CCc6nc(-n7cnnn7)ccc65)C[C@H]4CO3)ccc21 (single isomer, unassigned) [Example 17A]
> 1000 | > 1000 | C[C@@H]1Cc2cc([C@H]3CN4CCN(C(=O)C5CCc6nc(-n7cnnn7)ccc65)C[C@H]4CO3)ccc2C(=O)O1 (single isomer, unassigned) [Example 1D]
> 1000 | > 1000 | C[C@@H]1Cc2cc([C@@H]3CN4CCN(C(=O)C5CCc6nc(-n7cnnn7)ccc65)C[C@H]4CO3)ccc2C(=O)O1 (single isomer, unassigned) [Example 1B]
350 |  | C[C@H]1Cc2cc([C@H]3CN4CCN(C(=O)C5CCc6nc(-n7cnnn7)ccc65)C[C@H]4CO3)ccc2C(=O)O1 (single isomer, unassigned) [Example 1K]
570 | 200 | C[C@@H]1Cc2cc([C@H]3CN4CCN(C(=O)C5CCc6nc(-n7cnnn7)ccc65)CC4CO3)ccc2C(=O)O1 (single isomer, unassigned) [Example 1E]
450 | 100 | C[C@H]1Cc2cc([C@@H]3CN4CCN(C(=O)C5CCc6nc(-n7cnnn7)ccc65)CC4CO3)ccc2C(=O)O1 (single isomer, unassigned) [Example 1J]

Reference: patent US9062070B2, “Inhibitors of the renal outer medullary potassium channel” (Merck Sharp & Dohme Corp., priority 2011, dated 2015)
